The values that follow are results of earlier work, collected in patent US20260224588A1, “BENZODIAZEPINONE-DERIVED INHIBITORS OF EGFR AND HER2” (The Research Foundation for the State University of New York, priority 2023, published 2026).

Protein sequences, listed by entry. Tags and fused reporters are not part of them. Residues count along the entry.
UniProt P00533, 696-1022 limits assumed: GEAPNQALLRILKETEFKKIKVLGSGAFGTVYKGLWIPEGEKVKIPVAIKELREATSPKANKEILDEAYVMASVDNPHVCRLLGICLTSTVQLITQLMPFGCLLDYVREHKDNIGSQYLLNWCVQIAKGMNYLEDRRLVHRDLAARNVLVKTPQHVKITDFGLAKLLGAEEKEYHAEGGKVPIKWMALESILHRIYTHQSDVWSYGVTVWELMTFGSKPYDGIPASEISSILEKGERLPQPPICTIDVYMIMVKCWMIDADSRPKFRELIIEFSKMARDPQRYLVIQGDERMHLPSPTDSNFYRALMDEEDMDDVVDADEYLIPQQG

The subject of series [1] is L858R EGFR mutant Ba/F3 cells. The following applies: read-out: Anti-proliferative EC50 ± SE, LR, from literature (footnotes a, c); cited from earlier work.
Series [2] concerns wildtype EGFR Ba/F3 cells. The following applies: read-out: Anti-proliferative EC50 ± SE, wt, from literature (footnotes a, c); cited from earlier work.
The target of series [3] is WT EGFR kinase domain (Homo sapiens, UniProt P00533). The note with it: read-out: Biochemical EGFR IC50, wt; from De Clercq and Heppner et al. 2019; cited from earlier work.

SMILES strings stand for the structures.

The term EC50 denotes the concentration that produces a half-maximal response. `C=CC(=O)Nc1ccc(OC)c(Nc2cc(-c3[nH]c(SC)nc3-c3ccc(F)cc3)ccn2)c1`: the half-maximal effective concentration (EC50) in series [1] was under 1 nM; in series [2], 20 nM.

The term IC50 denotes the midpoint of a concentration-inhibition curve. As to `O=C1c2cc(F)ccc2Nc2ccccc2N1Cc1ccccc1`, the IC50 in series [3] is over 1000 nM.
